Laboratory results taken from ChEMBL document CHEMBL5653629, “Novel Class of Potent and Cellularly Active Inhibitors Devalidates MTH1 as Broad-Spectrum Cancer Target” (ACS Chem Biol, 2017).

Assays:
Test in all cases: cells
NCI-H358 = settings: Homo sapiens, NCI-H358, 144 h
NCI-H460 = settings: Homo sapiens, NCI-H460, 144 h
A549 = settings: Homo sapiens, A549, 144 h
MCF7 = settings: Homo sapiens, MCF7, 144 h
MDA-MB-231 = settings: Homo sapiens, MDA-MB-231, 144 h
U2OS = settings: Homo sapiens, 144 h
HeLa = settings: Homo sapiens, 144 h
SW480 = settings: Homo sapiens, SW480, 144 h

Measured: GI50

CCNC(=O)c1cc2c(N3CCOC[C@@H]3C)ccnc2[nH]1
> 30 µM: NCI-H358 | NCI-H460 | A549 | MCF7 | MDA-MB-231 | U2OS | HeLa | SW480
